By UniProt entry, the sequences of proteins in these tests, tags left out. Where a name states a change or a piece, a line headed by the entry shows the natural chain unless it says otherwise.
UniProt P41144: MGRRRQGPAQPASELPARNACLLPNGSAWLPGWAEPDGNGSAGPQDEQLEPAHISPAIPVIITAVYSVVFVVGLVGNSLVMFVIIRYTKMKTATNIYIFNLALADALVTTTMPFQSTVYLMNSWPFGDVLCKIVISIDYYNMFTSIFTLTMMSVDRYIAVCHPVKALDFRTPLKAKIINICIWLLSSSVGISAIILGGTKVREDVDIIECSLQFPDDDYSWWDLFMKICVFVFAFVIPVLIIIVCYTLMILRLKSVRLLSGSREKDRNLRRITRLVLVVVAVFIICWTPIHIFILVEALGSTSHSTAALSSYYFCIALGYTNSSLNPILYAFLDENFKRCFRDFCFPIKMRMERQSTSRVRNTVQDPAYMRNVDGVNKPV
UniProt Q60492, whole entry, looked up: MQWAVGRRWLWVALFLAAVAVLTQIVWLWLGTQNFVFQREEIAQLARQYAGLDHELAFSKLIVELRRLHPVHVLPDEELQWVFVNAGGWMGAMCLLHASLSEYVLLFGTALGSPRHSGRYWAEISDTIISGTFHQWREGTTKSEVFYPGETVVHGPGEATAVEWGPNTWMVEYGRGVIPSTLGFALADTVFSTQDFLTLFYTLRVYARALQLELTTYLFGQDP
UniProt P33533, whole entry, looked up: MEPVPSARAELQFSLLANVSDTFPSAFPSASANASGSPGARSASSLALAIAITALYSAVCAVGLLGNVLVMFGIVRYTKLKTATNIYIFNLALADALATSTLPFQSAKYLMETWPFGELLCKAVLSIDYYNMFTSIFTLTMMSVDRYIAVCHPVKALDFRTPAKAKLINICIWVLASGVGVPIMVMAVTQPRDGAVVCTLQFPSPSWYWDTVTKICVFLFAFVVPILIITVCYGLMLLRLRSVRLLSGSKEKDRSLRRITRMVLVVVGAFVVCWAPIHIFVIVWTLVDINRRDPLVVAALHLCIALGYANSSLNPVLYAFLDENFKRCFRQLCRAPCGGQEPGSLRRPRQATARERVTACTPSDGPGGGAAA

In ChEMBL document CHEMBL5154699 (Eur J Med Chem, 2022):

What was measured:
[1] = target: Kappa-type opioid receptor (Cavia porcellus, UniProt P41144); assay: Displacement of [3H]-U69593 from KOR in guinea pig brain membranes measured by competitive radioligand receptor binding assay
[2] = target: Sigma non-opioid intracellular receptor 1 (Cavia porcellus, UniProt Q60492)
[3] = target: Delta-type opioid receptor (Rattus norvegicus, UniProt P33533); assay: Displacement of [3H]-DPDPE from DOR in rat brain membranes measured by competitive radioligand receptor binding assay

CN(C)[C@@H]1CCC2CCN(C(=O)Cc3ccc(Cl)c(Cl)c3)C1C2 (mixture of isomers)
Ki [1]: 23 nM | Ki [2]: 170 nM | Ki [3]: > 1000 nM

O=C(Cc1ccc(Cl)c(Cl)c1)N1CC[C@H]2CC[C@@H](N3CCCC3)[C@@H]1C2
Ki [1]: 18 nM | Ki [2]: 6.5 nM

O=C(Cc1ccc(Cl)c(Cl)c1)N1CCC2CC[C@@H](N3CCCC3)C1C2 (stereo partly drawn)
Ki [1]: 26 nM

O=C(Cc1ccc(Cl)c(Cl)c1)N1CC[C@@H]2CC[C@H](N3CCCC3)[C@H]1C2
Ki [1]: 123 nM | Ki [2]: 14 nM
